Legend:
human red blood cells = experiment: Hemolytic activity, minimal hemolytic concentration (MHC); assay type: cell-based; settings: for Minimal hemolytic concentration (MHC): human red blood cells
[1] = Stability assessment: fold change in MIC after incubation in 100% human serum; assay type: in vitro ADME; settings: for stability (fold change in MIC) in 100% human serum: 37° C., 1 hour, and 2 hours; for Fold change in MIC: incubation in 100% human serum at 37° C.
[2] = Stability assessment in rabbit serum; assay type: in vitro ADME; settings: incubation in rabbit serum at 37° C.
[3] = Stability assessment in 100% CAA; assay type: in vitro ADME; settings: incubation in 100% CAA at 37° C.

Row | Substance | Minimal hemolytic concentration (MHC) (human red blood cells) [µg/mL] | stability (fold change in MIC) in 100% human serum ([1]; 10 minutes) | Fold change in MIC ([1]; 10 minutes) | Fold change in MIC ([1]; 1 hour) | Fold change in MIC ([1]; 2 hours) | Fold Change in MIC (rabbit serum) ([2]; 10 min.) | Fold Change in MIC (rabbit serum) ([2]; 1 hour) | Fold Change in MIC (rabbit serum) ([2]; 2 hours) | Fold change in MIC (100% CAA) ([3]; 10 min.) | Fold change in MIC (100% CAA) ([3]; 1 hour) | Fold change in MIC (100% CAA) ([3]; 2 hours) | hemolytic concentration range (human red blood cells; positive control detergent)
1 | MAGKKMVSKGKDRQIFRKTADRTKKMNVRPLLYRGGIRL [Chp12] | >128 | adequately stable | 1 | 1 | 1 | 1 | 1 | 1 |  |  |  | 
2 | MAKKIRNKARDRRIFTRTASRMHKANRTPRFMRGGIRL [ALCES1] | >128 | adequately stable | 1 | 1 | 1 |  |  |  |  |  |  | 
3 | MAKKMTKGKDRQVFRKTADRTKKLNVRPLLYRGGIRL [Chp11] | >128 | adequately stable |  |  |  | 1 | 1 | 1 |  |  |  | 
4 | MAKRHKIPQRASQHSFTRHAQKVHPKNVPRLPMRGGIRL [AVQ244] | >128 | adequately stable | 1 | 1 | 0.5 | 1 | 1 | 1 |  |  |  | 
5 | MARRKKMKGKRDKRVFKQTANKTKAINISPKNMRGGTRL [Unp3] | >128 | adequately stable | 1 | 1 | 1 | 1 | 1 | 1 |  |  |  | 
6 | MARRRYRLPRRRSRRLFSRTALRMHPRNRLRRIMRGGIRF [Chp6] | >128 | adequately stable | 1 | 1 | 1 | 1 | 1 | 1 |  |  |  | 
7 | MARRYRLSRRRSRRLFSRTALRMHRRNRLRRIMRGGIRF | >128 | adequately stable | 1 | 1 | 0.5 | 1 | 2 | 4 |  |  |  | 
8 | MARSRRRMSKRSSRRSFRKYAKSHKKNFKARSMRGGIRL [Ecp2] | >128 | adequately stable | 1 | 2 | 2 | 1 | 1 | 1 |  |  |  | 
9 | MARSRRRMSKRSSRRSFRKYAKSHKKNFKARSMRGGIRL [Ecp4] | >128 |  |  |  |  |  |  |  |  |  |  | 
10 | MARSRRRMSKRSSRRSFRKYAKTHKKNFKARSMRGGIRL [Ecp3] | >128 | adequately stable | 1 | 1 | 1 | 1 | 1 | 2 |  |  |  | 
11 | MARSRRRMSKRSSRRSFRKYAKTHKRNFKARSMRGGIRL [Ecp1] | >128 | adequately stable | 1 | 4 | 1 | 1 | 2 | 1 |  |  |  | 
12 | MAYRGFKTSRVVKHRVRRRWFNHRRRYR [Spi1] | >128 | adequately stable | 1 | 2 | 2 | 1 | 1 | 2 |  |  |  | 
13 | MCKKVCKKCPKKGPKNAPKIGAFYERKTPRLKQST [CPAR39] | >128 | adequately stable | 1 | 0.5 | 0.5 | 1 | 0.5 | 0.25 |  |  |  | 
14 | MIVRRHKMSRRRSRKLFSKTASRTRSKNLRSRPMRGGYRI [Unp4] | >128 |  |  |  |  |  |  |  |  |  |  | 
15 | MKMRKRTDKRVFTRTAAKSKKVNIAPKIFRGGIRL [Unp1] |  | adequately stable | 1 | 0.5 | 2 | 1 | 1 | 1 |  |  |  | 
16 | MKPLKRKPVQKARSAAKFRRNVSTVKAANMAVKPMRGGWRF [Fen7875] |  |  |  |  |  | 1 | 1 | 1 |  |  |  | 
17 | MKRKPMSRKASQKTFKKNTGVQRMNHLNPRAMRGGIRL [Bdp1] | >128 | adequately stable | 1 | 1 | 0.25 | 1 | 1 | 1 | 1 | 1 | 0.5 | 
18 | MKRRKLSKKKSRKIFTRGAVNVKKRNLRARPMRGGFRI [Chp10] | >128 | adequately stable | 1 | 2 | 2 | 1 | 1 | 1 | 1 | 0.5 | 0.5 | 
19 | MKRRKMTRKGSKRLFTATADKTKSINTAPPPMRGGIRL [Chp7] | >128 | adequately stable | 1 | 1 | 1 | 2 | 0.5 | 0.5 | 1 | 1 | 1 | 
20 | MRKKMHKSLDKRVFNRTAKKSKKINVNPVVYRGGIRL [CDL907] | >128 | adequately stable | 1 | 1 | 1 |  |  |  |  |  |  | 
21 | MRPVKRSRVNKARSAGKFRKQVGKTKMANLRSNPMRGGWRL [HH3930] |  |  |  |  |  | 1 | 1 | 1 |  |  |  | 
22 | Triton X-100 [reference compound] |  |  |  |  |  |  |  |  |  |  |  | 2% to 0.007%

From patent US20220401514A1, “ANTIMICROBIAL, BACTERIOPHAGE-DERIVED POLYPEPTIDES AND THEIR USE AGAINST GRAM-NEGATIVE AND ACID-FAST BACTERIA” (CONTRAFECT CORPORATION, priority 2019, published 2022)
